# Key:
# Amino acid sequences for entries named in this document (tags omitted).
# UniProt Q15910, whole entry: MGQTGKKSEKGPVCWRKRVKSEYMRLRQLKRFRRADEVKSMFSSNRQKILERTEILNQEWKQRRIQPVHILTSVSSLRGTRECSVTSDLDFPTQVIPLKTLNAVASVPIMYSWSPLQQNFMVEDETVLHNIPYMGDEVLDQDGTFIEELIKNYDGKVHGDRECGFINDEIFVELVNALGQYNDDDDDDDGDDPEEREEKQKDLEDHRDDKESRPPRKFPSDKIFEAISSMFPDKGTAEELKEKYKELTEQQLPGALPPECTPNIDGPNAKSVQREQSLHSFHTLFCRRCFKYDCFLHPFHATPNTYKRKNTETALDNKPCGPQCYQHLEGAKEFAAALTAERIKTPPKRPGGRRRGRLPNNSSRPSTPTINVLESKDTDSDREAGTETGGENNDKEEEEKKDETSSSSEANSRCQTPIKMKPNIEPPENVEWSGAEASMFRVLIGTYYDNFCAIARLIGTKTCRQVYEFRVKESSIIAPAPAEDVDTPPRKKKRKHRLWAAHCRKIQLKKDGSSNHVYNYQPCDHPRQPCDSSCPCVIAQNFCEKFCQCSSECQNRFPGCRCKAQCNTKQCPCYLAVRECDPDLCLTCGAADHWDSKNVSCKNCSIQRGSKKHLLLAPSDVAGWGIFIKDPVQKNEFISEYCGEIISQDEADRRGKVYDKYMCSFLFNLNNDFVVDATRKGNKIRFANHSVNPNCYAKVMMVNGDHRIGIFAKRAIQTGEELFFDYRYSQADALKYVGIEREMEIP
# EZH2 = EZH2 (Homo sapiens, UniProt Q15910); settings: read-out: EZH2 Ki^app; cited from earlier work
# EVSAT DTP = assay: EZH2 inhibitors on EVSAT DTP cell growth with PI3K inhibitor (IncuCyte); type: cell-based; settings: GDC-0908 2 μM; GSK126 0.1, 0.5, 2.5 μM; EPZ-6438 0.05, 0.1, 0.5 μM
# PC9 DTP = assay: EZH2 inhibitors on PC9 DTP cell growth with erlotinib (IncuCyte, Giemsa); type: cell-based, human; settings: erlotinib 1 μM; GSK126 0.1-2.5 μM; EPZ-6438 0.05-1.5 μM; day 9 and 30 days
SMILES,Ki (EZH2) [nM],cell growth of EVSAT DTP with PI3 kinase inhibitor (EVSAT DTP),cell growth of PC9 DTP with erlotinib (PC9 DTP)
CCCc1cc(C)[nH]c(=O)c1CNC(=O)c1cc(-c2ccnc(N3CCN(C)CC3)c2)cc2c1cnn2C(C)C [Compound 6],1.2 ± 0.2,–,–
"CCN(c1cc(-c2ccc(CN3CCOCC3)cc2)cc(C(=O)NCc2c(C)cc(C)[nH]c2=O)c1C)C1CCOCC1 [EPZ-6438, N-((4,6-dimethyl-2-oxo-1,2-dihydropyridin-3-yl)methyl)-5-(ethyl(tetrahydro-2H-pyran-4-yl)amino)-4-methyl-4′-(morpholinomethyl)-[1,1′-biphenyl]-3-carboxamide]",–,effective in reducing cell growth in a dose dependent manner,effective in reducing cell growth in a dose dependent manner

# Reference: patent US20160160213A1, “METHODS OF TREATING CANCER AND PREVENTING CANCER DRUG RESISTANCE” (Genentech, Inc., priority 2013, published 2016)
